Experimental data from patent US11970521B2, “Neuroprotective beta amyloid core peptides and peptidomimetic derivatives” (priority 2016, dated 2024).

How the values were obtained:
[1] = test system: NG108-15 cells expressing α4β2-nAChRs; assay: Cell stress (ROS) assay, α4β2-nAChR-transfected differentiated NG108-15 cells treated with Aβ1-42; format: cell-based, rodent; details: FIG. 4, p<0.0001
Description: (§1) In Vitro Neuronal Models. The studies were, performed on the NG108-15 rodent hybrid neuroblastoma cell line and primary hippocampal neuron cultures. The cell line can be differentiated, yielding axonal neurites with presynaptic-like varicosities that have the ability to release acetylcholine via exocytosis in response to stimulation. […] The primary hippocampal neuron cultures provide a physiologically relevant model. Non-limiting examples of results are shown in FIGS. 4, 5A-5B, 8A-6B, 7A-7B, 8, 9A-9B, 10A-10B, 13A-13,C and 14A-14B.
(§2) Neuroblestoma Clonal Cell Culture and Transfection. Rodent hybrid neuroblastoma NG108-15 cells were used as a model nerve cell system allowing reconstitution with defined target receptors for Aβ. The cells were cultured in Dulbecco's modified Eagle's medium (DMEM) containing 15% fetal bovine serum (FBS) and differentiated in the presence of reduced serum (1% FBS) and 1 mM dibutyryl cyclic AMP for 72 h, Expression vectors (pcDNA3.1) containing mouse sequences for α4 and β2 nAChR subunits (1:4 ratio respectively) were transiently transfected into the cells using FuGENE HD (ThernioFisher, catalog #PRE2311) for 48 h. Mock-transfected NG108-15 cells, exposed only to FuGENE HO and not plasmid DNA, were used as controls.
Cell Stress Assays. Cells were plated, differentiated and treated for 3 days poor to assay. Cell count and fluorescence intensity of reactive oxygen species (ROS)-positive cells were assessed as a means to measure cellular oxidative stress using an Image-IT® LIVE Green Reactive Oxygen Species Detection Kit. In brief, the cells were treated for three days for NG108-15 cultures end five or ten days for primary hippocampal neuronal cultures. The media was changed every day, thus replenishing with fresh Aβ every 24 h, unless otherwise noted. Thereafter, the cells were incubated with carboxy-H2DCFDA (component A) at 37° C. for 30 min. During the last 5 min of incubation, 2 μg/ml of HOECHST stain (component B) was added to assess, in parallel, the integrity of the cell nuclei. […]

[2] = test system: mock-transfected NG108-15 cells; assay: Cell stress (ROS) assay, mock-transfected NG108-15 cells (absent nAChRs) treated with μM Aβ1-42; format: cell-based, rodent; details: co-treatment with nM-μM concentrations and 1 μM Aβ1-42; FIG. 6A; p<0.0001
Description: as §1
as §2, with “Mock-transfected NG108-15 cells, exposed only to FuGENE HO and not plasmid DNA, were used as controls.” left out
Cell Stress Assays. […] Cell count and fluorescence intensity of reactive oxygen species (ROS)-positive cells were assessed as a means to measure cellular oxidative stress using an Image-IT® LIVE Green Reactive Oxygen Species Detection Kit. […]

[3] = test system: primary hippocampal neurons; assay: Cell stress (ROS) assay in primary hippocampal neuron cultures; format: cell-based, mouse; details: 1 μM with 1 μM Aβ1-42, 5 or 10 days; p<0.0001
[4] = test system: mock-transfected NG108-15 cells; assay: Cell death (apoptosis) TUNEL assay, NG108-15 cells without nAChRs; format: cell-based; details: nM-μM co-treatment over four days with 1 μM Aβ1-42; FIG. 14B; trend of greater reduction at μM
Experimental: as §2

[5] = test system: NG108-15 cells expressing α4β2-nAChRs; assay: Cell survival (daily cell counts), NG108-15 cells with α4β2-nAChRs; format: cell-based, rodent
Experimental: Neuroblestoma Clonal Cell Culture and Transfection. Rodent hybrid neuroblastoma NG108-15 cells were used as a model nerve cell system allowing reconstitution with defined target receptors for Aβ. […] Mock-transfected NG108-15 cells, exposed only to FuGENE HO and not plasmid DNA, were used as controls.
(§3) Cell Survival. Cell survival was determined by counting cells everyday for 7 or 10 days of treatment. For each condition, all cells in 5 random fields of view were counted and averaged. Percent cell death was calculated based on daily cell counts as a proportion of starting cell count numbers (i.e. day 0).

[6] = test system: primary hippocampal neurons; assay: Cell survival (cell counts), primary hippocampal neurons; format: cell-based, mouse; details: 1 μM with 1 μM Aβ1-42; FIG. 10B; p<0.0001
Experimental: as §3

[7] = test system: nicotinic receptors (nAChRs); assay: Ca2+ imaging / neuromodulator activity at nicotinic receptors (receptor subtype not specified in the statement); format: cell-based; details: compared with full-length β-amyloid
Experimental: Ca^2+ Imaging Fluo-4, a Ca^2+ indicator dye, was loaded into cells on coverslips and visualization of [Ca^2+] was done via a Nikon PCM 2000 Cameleon AOTF confocal microscope. Each time-series was normalized to baseline fluorescence intensity at time zero (F/F0). After recording a baseline image series, each treatment was perfused over cells for 2.5 minutes or 15 minutes and quantification of relative fluorescence changes was analyzed through imageJ.

[8] = test system: 5XFAD (familial Alzheimer's disease) APP mice; assay: Contextual fear memory in 5XFAD APP mice; format: in vivo, mouse; details: FIG. 12
[9] = test system: endogenously produced Aβ (from transfected APP); assay: Cell stress (ROS) assay, endogenously produced Aβ from transfected APP; format: cell-based; details: FIG. 8
Experimental: Cell Stress Assays. Cells were plated, differentiated and treated for 3 days poor to assay. Cell count and fluorescence intensity of reactive oxygen species (ROS)-positive cells were assessed as a means to measure cellular oxidative stress using an Image-IT® LIVE Green Reactive Oxygen Species Detection Kit. In brief, the cells were treated for three days for NG108-15 cultures end five or ten days for primary hippocampal neuronal cultures. The media was changed every day, thus replenishing with fresh Aβ every 24 h, unless otherwise noted. Thereafter, the cells were incubated with carboxy-H2DCFDA (component A) at 37° C. for 30 min. During the last 5 min of incubation, 2 μg/ml of HOECHST stain (component B) was added to assess, in parallel, the integrity of the cell nuclei. The cells were washed twice with HBS and visualized using an Olympus IX81 epifluorescence microscope at excitation/emission of 495) 529 nm (ROS) and 350/461 nm (HOECHST), respectively. Exemplary results are shown in FIGS. 4, 5A, 6A, 7A-7B, 8, and 9A-9B.

[10] = test system: model neuronal cultures; assay: Excitotoxicity in model neuronal cultures; format: cell-based; details: only high levels (μM)
[11] = test system: nicotinic receptors (nAChRs); details: low concentrations (pM-nM); Lawrence et al. 2014; cited from earlier work
[12] = test system: hippocampal slices; details: FIG. 11, from Lawrence et al. 2014; cited from earlier work

For DAEFRHDSGYEVHHQ [N-Aβ fragment], the “Aβ1-42-induced ROS, priming (pre-treatment)” value ([1]; 100 nM introduced one day prior to 100 nM Aβ1-42) was “significantly reduced Aβ1-42-induced ROS”, the “Aβ1-42-induced oxidative stress (ROS), co-treatment” value ([1]; co-treatment at similar or higher concentrations than daily 100 nM Aβ1-42) was “able to prevent Aβ1-42-induced oxidative stress” and the “Aβ1-42-induced ROS, rescue treatment” value ([1]; introduced 1 day after Aβ1-42 (100 nM each)) was “attenuated ROS to a significant extent”. The “Aβ1-42-induced oxidative stress (ROS) in absence of nAChRs” value [2] was “reduced this oxidative stress compared to Aβ1-42 alone”, the “Aβ1-42-induced ROS in primary neurons, co-treatment” value [3] was “reduced the levels of ROS down to untreated (baseline) levels” and the “Aβ1-42-induced DNA-fragmentation in absence of nAChRs” value [4] was “reduced DNA-fragmentation compared to Aβ1-42 alone”. For the same sequence, the “Aβ1-42-induced cell death at 7 days, co-treatment” value ([5]; 100 nM co-treatment with 100 nM Aβ1-42, FIG. 10A, p<0.0001) was “able to fully protect against Aβ1-42-induced cell death”, the “Toxicity of peptide alone (cell counts)” value ([5]; FIG. 10A-10B) was “non-toxic” and the “Aβ1-42-induced cell death over 10-day treatments, co-treatment” value [6] was “protected primary hippocampal neurons against β1-42-induced cell death”. For the same sequence, the “Agonist-like action on nicotinic receptors in Ca2+ imaging studies” value [7] was “highly potent and more effective than full-length β-amyloid”, the “Aβ-linked deficits in contextual fear memory” value [8] was “protects against Aβ-linked deficits in contextual fear memory” and the “Oxidative stress (ROS) induced by endogenously produced Aβ” value [9] was “protects against cellular toxicity”. For the same sequence, the Protection against excitotoxicity [10] was “protected against excitotoxicity”, the “Effectiveness as neuromodulator versus full-length Aβ” value [11] was “nearly twice as effective as full-length Aβ” and the “Aβ-linked deficits in synaptic plasticity (LTP)” value [12] was “protects against Aβ-linked deficits in synaptic plasticity”.
